# Like-named read-outs stand apart in the source and are kept apart here.
# Experiments:
# ORX Wistar male rats = assay: In Vivo Study to Explore Direct Antagonist Effect of Example 1 in the Presence of TE; set-up: species or system rat; conditions: ORX + Example 1 10 mg/kg/d without TE, vs TE alone
# Procedure: Route of administration for all groups except TE is oral. TE is administered subcutaneously. At the end of 8 weeks of daily dosing, rats are euthanized, weighed & tissue harvested. Levator ani, prostates, and seminal vesicles are collected from each animal. Results are plotted as means±SE.
# [1] = 6 month treatment of dogs (Table 10); conditions: male, dog, in vivo, 300 mg/kg/day
# [2] = tested on: LnCAP human prostate cancer cells; assay: LnCAP Gene Expression; type: cell-based
# [3] = Four Week Oral Toxicity Study in Rats; type: in vivo; conditions: male, CD [Crl:CD (SD)], rat, plasma
# Procedure: Three treatment groups of 10 male and 10 female CD® [Crl:CD® (SD)] rats are administered the test article at respective dose levels of 15, 150, and 1500 mg/kg/day. […] The test article or vehicle is administered to all groups via oral gavage, once a day for 28 consecutive days, at a dose volume of 15 mL/kg. Additionally, three groups of 18 animals/sex/group serves as toxicokinetic (TK) animals and receives the test article in the same manner and dose volume as the main study groups at respective dose levels of 15, 150, and 1500 mg/kg/day. One additional group of three animals/sex serves as the toxicokinetic control and receives the vehicle in the same manner and dose volume as the treated groups.
# Observations for morbidity, mortality, injury, and the availability of food and water are conducted twice daily for all animals. Observations for clinical signs are conducted weekly for main study animals only. Body weights were measured and recorded weekly for all animals and food consumption is measured and recorded weekly for main study animals. Ophthalmoscopic examinations are conducted pretest on all animals and prior to terminal necropsy for main study animals only. Blood samples for clinical pathology evaluations are collected from all main study animals at necropsy. Urine samples are collected on the last day of dosing. Blood samples for determination of the plasma concentrations of the test article are collected from TK animals at designated time points on Days 1 and 28. After the final blood collection, the TK animals are euthanized and the carcasses are discarded without further evaluation. Liver samples for hepatic enzyme induction analysis are collected at terminal necropsy from main study animals. At study termination, necropsy examinations are performed, organ weights are recorded, and prostate and seminal vesicle tissues are microscopically examined. Additional microscopic examination is performed on the left testis from the first five male rats/group at necropsy.
# [4] = 52 Week Toxicity and Toxicokinetic Study in Dogs; conditions: male, beagle, dog, in vivo, po
# Procedure: Male and female purebred beagle dogs are assigned to groups, and doses are administered according to Table 9 via oral capsules containing 1 ml/kg of 0 [1% (w/v) carboxymethylcellulose sodium (low viscosity/25-50 cps), 0.5% (w/v) sodium lauryl sulfate and 0.05% (v/v) Dow Corning® Antifoam 1510-US in reverse osmosis water] […] All animals receive the same number of capsules, and Group 1 animals receive capsules containing vehicle control article only. Three animals per sex from Groups 1 and 4 are designated as recovery animals.
# Assessment of toxicity is based on mortality, clinical signs, body weight and body weight change, food consumption, ophthalmic and neurologic evaluations, ECG measurements, hormone analysis (testosterone, progesterone, luteinizing hormone, and follicle stimulating hormone), semen evaluation (ejaculate volume and sperm number, density, morphology, and motility), and clinical and anatomic pathology. Blood samples are collected for exploratory metabolite analysis and toxicokinetic evaluations.
# Orx rats = assay: Orchidectomized Rat Assay; type: in vivo; conditions: 20 mg/Kg/d
smiles,measurement,setting,value
"CC(C)OC(=O)N[C@H]1Cc2c(n(Cc3ccccn3)c3ccc(C#N)cc23)C1 (single isomer, unassigned) [Example 1]","Prostate Weights, Abs(Dif) − LSD",ORX Wistar male rats,0.357
same,AUC(0-t),[1],53000 ng·h/mL
same,EC50,"[2]; CLUSTERIN gene, read-out: LnCAP Gene Expression EC50 (nM) CLUSTERIN",> 100 nM
same,EC50,"[2]; PSA gene, read-out: LnCAP Gene Expression EC50 (nM) PSA",2.64 nM
same,AUC(0-t),"[3]; oral, males, 1500 mg/kg/day, read-out: Mean steady-state systemic exposure (AUC0-24 hr)",102000 ng·h/mL
same,AUC(0-t),"[3]; po, rats, 1 month, 15 mg/kg/day, read-out: Male group mean AUC0-24 hr near termination",35700 ng·h/mL
same,AUC(0-t),"[3]; po, rats, 1 month, 150 mg/kg/day, read-out: Male group mean AUC0-24 hr near termination",72300 ng·h/mL
same,AUC(0-t),"[3]; po, rats, 1 month, 1500 mg/kg/day, read-out: Male group mean AUC0-24 hr near termination",102000 ng·h/mL
same,AUC(0-t),"[4]; dogs, 12 months, 10 mg/kg/day, read-out: Male group mean AUC0-24 hr near termination",13400 ng·h/mL
same,AUC(0-t),"[4]; dogs, 12 months, 100 mg/kg/day, read-out: Male group mean AUC0-24 hr near termination",22600 ng·h/mL
same,AUC(0-t),"[4]; males, 100 mg/kg, after 361 days of dosing, read-out: AUC0-24 h",22600 ng·h/mL
same,LV-TBMC (mg) ± SD,Orx rats,1.6943 ± 0.0264 mg
